Test [1] concerns HER-2 positive metastatic BC. To be noted: single agent therapy; cited from earlier work.
The subject of test [2] is MCF-7 cells. As to the kind of experiment: WST-8 growth inhibition of cultured breast cancer cells. In kind it is cell-based, human. How it is done:
(§1) In another example, the expression of thymidylate synthase (TS) was correlated with the response of breast cancer cells to the chemotherapeutic drug 5-fluorouracil (5-FU). TS is a key enzyme in DNA biosynthesis and has been postulated to play a major role in predicting the response to 5-FU based chemotherapy. Experiments were conducted to examine this relationship. Experimental conditions and analysis methods were similar to those used with Herceptin. Doses ranged from 5-300 μg/ml.
On the technique in general: Tetrazolium assays rely on reduction of a dye to a coloured formazan, in cell work by metabolically active cells.

In test [3] the test system is HCC 2218 cells. Described as above. It counts as cell-based, human. The protocol:
as §1

In test [4] the test system is SKBR-3 cells. The test is described as above. It counts as cell-based, human. To be noted: Herceptin. How it is done: (§2) In another example, the expression of thymidylate synthase (TS) was correlated with the response of breast cancer cells to the chemotherapeutic drug 5-fluorouracil (5-FU). TS is a key enzyme in DNA biosynthesis and has been postulated to play a major role in predicting the response to 5-FU based chemotherapy. Experiments were conducted to examine this relationship. […] Doses ranged from 5-300 μg/ml.

The test system of test [5] is HCC 38 cells. Described as above. It counts as cell-based, human. As to conditions: Trastuzumab. The protocol: as §2
Test [6] deals with HCC 202 cells. The test is described as above. In kind it is cell-based, human. To be noted: Trastuzumab. The protocol: as §2
The mark [7] stands for this setting: Herceptin, 72 hours post treatment.
Where [8] appears, read: Herceptin, HCC 2218 cells, 72 hours post treatment.

For trastuzumab [Herceptin], the patients who respond in test [1] is reported as less than 30%. The IC50-1 in test [2] (setting [7]) was 1250 µg/mL; in test [3] (setting [8]), 60 µg/mL. In addition, the IC50-2 came to 1360 µg/mL in test [2] (setting [7]); 120 µg/mL in test [3] (setting [8]); 650 µg/mL in test [4] (SKBR 3 cells, 72 hours post treatment). Also, the IC50 (as a rule, the midpoint of a concentration-inhibition curve) in test [2] (Trastuzumab) is 1250 µg/mL; in test [3] (Trastuzumab, HCC 2218 cells), 60 µg/mL; in test [5] it was “NR* (NR = No Response)”; in test [6], “NR* (NR = No Response)”. Further, the “lowest concentration with response (dose-related inhibition of proliferation)” value in test [3] (Herceptin, HCC2218 cells) was 0.032 mg/mL; in test [4] (SKBR-3 cells), 0.125 mg/mL.

Values taken from patent publication US20070071762A1, “COMPREHENSIVE DIAGNOSTIC TESTING PROCEDURES FOR PERSONALIZED ANTICANCER CHEMOTHERAPY (PAC)” (CCC Diagnostics, LLC, priority 2005, published 2007).
